Measured values taken from the NIST ThermoML archive (doi:10.1021/je060117o).

Conditions: Liquid, Other PVT measurement

CCl [chloromethane]
specific volume [m3/kg]
Conditions | 298 K | 323 K | 348 K | 373 K | 423 K | 473 K | 523 K | 573 K
10000 kPa | 0.001066 | 0.001131 | 0.001201 | 0.001301 | 0.00173 | 0.004468 | 0.006442 | 0.007881
20000 kPa | 0.001047 | 0.0011 | 0.001159 | 0.001233 | 0.001466 | 0.001858 | 0.002586 | 0.003417
30000 kPa | 0.00103 | 0.001079 | 0.001131 | 0.001187 | 0.00135 | 0.00156 | 0.0019 | 0.002317
40000 kPa | 0.001012 | 0.001059 | 0.001103 | 0.001155 | 0.001279 | 0.00144 | 0.001652 | 0.001928
50000 kPa | 0.0009994 | 0.001043 | 0.001083 | 0.001128 | 0.001234 | 0.001361 | 0.001504 | 0.001697
75000 kPa | 0.0009752 | 0.00101 | 0.001043 | 0.001083 | 0.00116 | 0.00125 | 0.001344 | 0.001457
100000 kPa | 0.0009545 | 0.0009852 | 0.001016 | 0.001048 | 0.001114 | 0.001183 | 0.001261 | 0.001347
125000 kPa | 0.0009395 | 0.0009622 | 0.0009892 | 0.001019 | 0.001075 | 0.001135 | 0.001199 | 0.001277
150000 kPa | 0.0009237 | 0.0009449 | 0.0009696 | 0.0009963 | 0.001048 | 0.0011 | 0.001153 | 0.001221
175000 kPa | 0.0009102 | 0.0009316 | 0.0009533 | 0.0009771 | 0.00102 | 0.001069 | 0.001117 | 0.001178
200000 kPa | 0.0009001 | 0.0009178 | 0.000937 | 0.000959 | 0.001 | 0.001043 | 0.001088 | 0.001145
225000 kPa | 0.0008905 | 0.0009076 | 0.0009251 | 0.0009441 | 0.0009818 | 0.001021 | 0.001066 | 0.001115
250000 kPa | 0.000881 | 0.0008978 | 0.0009147 | 0.0009328 | 0.0009678 | 0.001004 | 0.001043 | 0.001086
275000 kPa | 0.0008704 | 0.000887 | 0.000903 | 0.00092 | 0.0009519 | 0.0009865 | 0.00102 | 0.001063
300000 kPa | 0.0008631 | 0.0008777 | 0.0008942 | 0.0009104 | 0.0009409 | 0.0009729 | 0.001004 | 0.001047
325000 kPa | 0.0008544 | 0.0008694 | 0.0008839 | 0.0008995 | 0.0009295 | 0.0009587 | 0.000989 | 0.001028
350000 kPa | 0.0008484 | 0.0008622 | 0.0008766 | 0.0008906 | 0.0009167 | 0.000947 | 0.0009755 | 0.001012
375000 kPa | 0.0008408 | 0.0008542 | 0.000867 | 0.000881 | 0.0009064 | 0.0009357 | 0.0009626 | 0.0009929
400000 kPa | 0.0008366 | 0.0008474 | 0.00086 | 0.0008736 | 0.0008963 | 0.0009239 | 0.0009483 | 0.0009763
